By UniProt entry, the sequences of proteins in these tests, tags left out.
UniProt P23977, whole entry: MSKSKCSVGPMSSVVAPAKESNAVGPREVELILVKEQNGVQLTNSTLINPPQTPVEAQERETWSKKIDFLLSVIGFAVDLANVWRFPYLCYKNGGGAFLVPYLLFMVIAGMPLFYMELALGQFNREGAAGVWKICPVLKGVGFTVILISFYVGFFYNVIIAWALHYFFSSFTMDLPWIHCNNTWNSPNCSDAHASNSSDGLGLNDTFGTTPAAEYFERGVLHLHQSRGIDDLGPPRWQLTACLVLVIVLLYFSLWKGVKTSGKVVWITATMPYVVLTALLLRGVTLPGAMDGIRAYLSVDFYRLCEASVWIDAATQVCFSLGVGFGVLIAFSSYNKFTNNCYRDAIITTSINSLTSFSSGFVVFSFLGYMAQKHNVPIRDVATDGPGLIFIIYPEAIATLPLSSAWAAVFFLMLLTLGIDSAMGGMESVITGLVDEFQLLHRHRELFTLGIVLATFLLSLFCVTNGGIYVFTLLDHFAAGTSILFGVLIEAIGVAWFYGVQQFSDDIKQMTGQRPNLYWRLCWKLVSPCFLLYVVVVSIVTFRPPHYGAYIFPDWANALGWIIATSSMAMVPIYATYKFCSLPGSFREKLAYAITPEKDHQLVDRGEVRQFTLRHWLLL
UniProt Q9WTR4, whole entry: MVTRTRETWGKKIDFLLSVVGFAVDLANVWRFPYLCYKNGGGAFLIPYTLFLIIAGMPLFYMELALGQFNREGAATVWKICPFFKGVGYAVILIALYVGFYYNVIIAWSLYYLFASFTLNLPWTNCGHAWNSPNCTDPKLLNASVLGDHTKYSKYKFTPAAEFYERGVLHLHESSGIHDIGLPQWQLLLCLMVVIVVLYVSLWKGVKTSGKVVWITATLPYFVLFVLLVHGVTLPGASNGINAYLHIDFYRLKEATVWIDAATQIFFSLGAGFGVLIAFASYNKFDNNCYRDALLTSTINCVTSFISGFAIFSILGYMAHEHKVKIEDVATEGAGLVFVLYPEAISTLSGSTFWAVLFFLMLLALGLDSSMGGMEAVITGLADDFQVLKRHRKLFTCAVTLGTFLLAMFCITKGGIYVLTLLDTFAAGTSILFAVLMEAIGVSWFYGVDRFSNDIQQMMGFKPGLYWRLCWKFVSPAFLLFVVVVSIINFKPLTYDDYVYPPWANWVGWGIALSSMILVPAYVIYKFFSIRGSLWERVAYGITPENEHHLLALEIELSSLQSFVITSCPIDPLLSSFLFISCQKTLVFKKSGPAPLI

According to ChEMBL document CHEMBL1133251, “Synthesis and biological evaluation of 1-azabicyclo-[3.2.1]octanes: new dopamine transporter inhibitors” (Bioorg Med Chem Lett, 2000):

What was measured:
[1] = molecular target: Sodium-dependent dopamine transporter (Rattus norvegicus, UniProt P23977); test: Inhibition of [3H]- Mazindol binding to dopamine transporter of rat striatal membrane.
[2] = molecular target: Norepinephrine transporter (Rattus norvegicus, UniProt Q9WTR4); test: Inhibition of [3H]NE binding to norepinephrine transporter of rat brain synaptosomes; format: subcellular

With Clc1ccc([C@@H]2CCN3C/C(=N\OCc4ccccc4)C2C3)cc1 (some centres not stated) the Ki [1] was 1000 nM.
COC(=O)[C@H]1[C@@H](OC(=O)c2ccccc2)C[C@@H]2CC[C@H]1N2C [COCAINE] showed a Ki [2] of 186 nM.
